The test addresses T1, topoisomerase Iα (Homo sapiens, UniProt P11387).
T1 construct: purchased
T1 sequence (P11387 1-765): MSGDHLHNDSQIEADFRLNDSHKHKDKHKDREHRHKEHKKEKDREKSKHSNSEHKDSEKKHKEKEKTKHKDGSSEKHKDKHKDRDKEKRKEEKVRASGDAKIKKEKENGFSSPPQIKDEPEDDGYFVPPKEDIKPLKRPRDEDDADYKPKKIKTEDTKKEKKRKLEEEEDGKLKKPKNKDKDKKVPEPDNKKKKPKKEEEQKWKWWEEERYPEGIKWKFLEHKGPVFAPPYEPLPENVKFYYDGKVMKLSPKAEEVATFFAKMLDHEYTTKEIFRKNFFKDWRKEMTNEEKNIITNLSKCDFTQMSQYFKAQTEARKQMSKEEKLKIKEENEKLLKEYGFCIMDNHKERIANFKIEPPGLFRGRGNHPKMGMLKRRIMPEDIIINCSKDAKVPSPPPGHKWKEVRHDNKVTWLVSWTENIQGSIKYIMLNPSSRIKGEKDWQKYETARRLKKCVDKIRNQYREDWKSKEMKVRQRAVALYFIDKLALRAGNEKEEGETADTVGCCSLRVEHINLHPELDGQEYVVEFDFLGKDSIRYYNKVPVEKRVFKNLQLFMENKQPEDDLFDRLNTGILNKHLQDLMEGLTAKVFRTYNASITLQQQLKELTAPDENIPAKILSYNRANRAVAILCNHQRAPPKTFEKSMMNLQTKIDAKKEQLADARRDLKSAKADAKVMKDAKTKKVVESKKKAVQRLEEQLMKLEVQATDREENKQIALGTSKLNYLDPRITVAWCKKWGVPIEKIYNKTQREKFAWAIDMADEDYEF
As to the kind of experiment: Topoisomerase I inhibition, human DNA topoisomerase Elisa kit. The following applies: Topoisomerase I IC50 µM ± SEM. In kind it is biochemical. As for the experimental part:
Two folds of serial dilution was accomplished after standards and the tested compounds were dissolved in sample diluent. Horseradish peroxidase (HRP-avidin) and biotin-conjugated antibody were diluted 10 times each. Each well received 100 µL of each concentration of the standard or test chemicals, which were then added and incubated at 37 °C for 60 min. […] The microtiter plate was rinsed three times and given room to aspirate. After that, the plate was incubated at 37 °C for 60 min with 100 µL of HRP-avidin solution added to each well. After that, the plate was aspirated and cleaned 5 times. Each well received 90 µL of TMB substrate, and the plate was incubated for 30 min. at 37 °C in a light-protected environment. Finally, stop solution (50 µL) was loaded, and within 5 min, the absorbance at 450 nm was measured spectrophotometrically.
Topoisomerase enzyme assay
Topoisomerase I and II inhibitory activity […]
topoisomerase IIβ inhibitory activity utilizing the human DNA topoisomerase Elisa kit.
Standards and the tested compound were dissolved in sample diluent and 2 folds serial dilution was achieved. Biotin-conjugated antibody and avidin conjugated Horseradish Peroxidase (HRP-avidin) were diluted to 10 folds. 100 μL of each concentration of standard or test compound were added to each well. Incubate at 37 °C for 1 h. […] The absorbance was measured spectrophotometrically within 5 min at 450 nm .

By IC50 is commonly meant the midpoint of a concentration-inhibition curve.

Take `COc1cccc2c1C(=O)c1c(O)c3c(c(O)c1C2=O)C[C@@](O)(C(=O)CO)C[C@@H]3O[C@H]1C[C@H](N)[C@H](O)[C@H](C)O1` [Doxorubicin, reference compound]: inhibition was half-maximal at 3.36 ± 0.18 µM (IC50).

(Values after PMC11480511 (Scientific Reports, 2024).)
